These are literature values, as cited in US20070026026A1 (priority 2005, published 2007).

Molecules are shown by their SMILES.

In the data set the target is AT1 receptor (Homo sapiens, UniProt P30556). The conditions noted are these: cited from earlier work.

Turning to `CCCCc1nc(Cl)c(CO)n1Cc1ccc(-c2ccccc2-c2nn[nH]n2)cc1` [losartan], the “greater affinity for the AT1 receptor than for the AT2 receptor” value (AT1 versus AT2) is listed as “about 1000 fold”. In addition, where the note is “in vitro binding studies”, the “type of inhibition of the AT1 receptor” value is “reversible, competitive inhibitor”.
